The experiment concerns the target purified recombinant human PARP (Homo sapiens, UniProt P09874). The experiment is described as follows: PARP enzyme assay, [3H]NAD incorporation, IC50. The class given is biochemical. The settings on record: approximate values.

Sequences of proteins named here, by UniProt entry; tags and fusion partners are left off.
UniProt P09874, whole entry: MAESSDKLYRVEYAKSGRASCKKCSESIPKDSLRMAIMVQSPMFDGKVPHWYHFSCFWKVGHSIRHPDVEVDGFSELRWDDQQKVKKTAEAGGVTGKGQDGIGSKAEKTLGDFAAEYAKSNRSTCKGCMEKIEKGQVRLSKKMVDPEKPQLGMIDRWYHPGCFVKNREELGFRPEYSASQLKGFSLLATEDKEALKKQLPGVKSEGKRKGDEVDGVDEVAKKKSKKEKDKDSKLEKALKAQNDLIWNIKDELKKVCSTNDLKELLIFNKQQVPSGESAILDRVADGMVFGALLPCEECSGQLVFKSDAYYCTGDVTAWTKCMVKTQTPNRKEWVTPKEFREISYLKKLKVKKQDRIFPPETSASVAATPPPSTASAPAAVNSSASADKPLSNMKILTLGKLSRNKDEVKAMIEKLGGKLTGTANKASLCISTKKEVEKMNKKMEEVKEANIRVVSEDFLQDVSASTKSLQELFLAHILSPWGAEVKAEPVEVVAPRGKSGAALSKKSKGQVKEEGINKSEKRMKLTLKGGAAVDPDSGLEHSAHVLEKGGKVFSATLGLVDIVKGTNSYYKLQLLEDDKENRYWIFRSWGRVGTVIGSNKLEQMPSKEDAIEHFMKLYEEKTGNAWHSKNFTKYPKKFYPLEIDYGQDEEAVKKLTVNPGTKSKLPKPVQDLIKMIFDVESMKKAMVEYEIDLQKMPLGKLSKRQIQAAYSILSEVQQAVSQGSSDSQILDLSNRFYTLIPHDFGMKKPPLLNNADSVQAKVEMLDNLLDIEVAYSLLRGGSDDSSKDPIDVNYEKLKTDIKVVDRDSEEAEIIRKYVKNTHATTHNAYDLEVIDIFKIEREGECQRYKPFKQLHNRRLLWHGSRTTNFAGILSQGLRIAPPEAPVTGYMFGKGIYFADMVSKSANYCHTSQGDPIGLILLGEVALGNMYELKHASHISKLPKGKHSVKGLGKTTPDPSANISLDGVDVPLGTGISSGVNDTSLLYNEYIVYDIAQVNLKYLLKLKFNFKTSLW

Take `N[C@@H](Cc1c[nH]cn1)C(=O)N1CCc2[nH]c(=O)c3ccccc3c2C1`: the IC50 (usually the concentration needed to halve the response being measured) (tested form: TFA) is 329 nM.

Regarding `C[C@H](N)C(=O)N1CCc2[nH]c(=O)c3ccccc3c2C1`, the IC50 (tested form: TFA) is 107 nM.

For `CC(O)CNCCCC(=O)N1CCc2[nH]c(=O)c3ccccc3c2C1` (single isomer, unassigned) [18t], the IC50 was 128 nM.

With `CC(O)CNCCCC(=O)N1CCc2[nH]c(=O)c3ccccc3c2C1` (single isomer, unassigned) [18u], the 50% inhibitory concentration (IC50) came out at 66 nM.

On to `O=C(CCCN1CCc2ccccc2C1)N1CCc2[nH]c(=O)c3ccccc3c2C1`, for which the IC50 was determined as 1160 nM.

Regarding `N[C@@H](CCC(=O)O)C(=O)N1CCc2[nH]c(=O)c3ccccc3c2C1`, the IC50 (tested form: TFA) is 159 nM.

Consider `C[S+]([O-])CC[C@H](N)C(=O)N1CCc2[nH]c(=O)c3ccccc3c2C1` (some centres unmarked), for which the concentration for half-maximal inhibition (IC50) (tested form: TFA) came out at 172 nM.

For `O=C([C@@H]1CCCCN1)N1CCc2[nH]c(=O)c3ccccc3c2C1`, the half-inhibitory concentration (IC50) (tested form: TFA) amounted to 129 nM.

For the origin of these results see US7247641B2, “Compounds, derivatives, compositions, preparation and uses” (MGI GP, Inc., priority 2001, dated 2007).
